The values below come from paper PMC8855368 (Journal of medicinal chemistry, 2019).

For one series, the system named is HT29. The experiment in a line: MTT cell viability assay, HT29. The following applies: read-out: IC50-MTT HT29; HT29, 72 h; values of two independent experiments. On the technique in general: Tetrazolium dyes change colour on reduction, which living cells bring about.
The test system of another series is HCT116. Put plainly: MTT cell viability assay, HCT116. Particulars: read-out: IC50-MTT HCT116; HCT116, 72 h; values of two independent experiments.
The conditions of series [1]: room temperature overnight, LC–MS.

The term IC50 denotes the concentration at which inhibition is half-maximal. Take `C=CC(=O)N(CC(=O)NCCN1CCOCC1)c1nc(-c2ccccc2)cs1` [Compound 43, N-(2-((2-Morpholinoethyl)amino)-2-oxoethyl)-N-(4-phenylthiazol-2-yl)acrylamide]: in the series with HT29, the IC50 amounted to 12.2 µM.
As for `C=CC(=O)Nc1nc(-c2ccccc2Cl)cs1` [Compound 16, N-(4-(2-Chlorophenyl)thiazol-2-yl)acrylamide], the values for the IC50 in the series with HT29 and with HCT116 were 19.5 µM and 12.3 µM, respectively.
The corresponding values for `C=CC(=O)Nc1nc(-c2ccc3ccccc3c2)cs1` [Compound 23, N-(4-(Naphthalen-2-yl)thiazol-2-yl)acrylamide] are 13.4 µM and 11.8 µM.
For the compound `C=CC(=O)Nc1nc(-c2ccc(Cl)cc2)cs1` [Compound 18, N-(4-(4-Chlorophenyl)thiazol-2-yl)acrylamide], the half-maximal inhibitory concentration (IC50) with HT29 is 23.7 µM; in the series on HCT116 it was 12.6 µM. Besides, the “stability in 20% acetonitrile/PBS buffer solution” value in series [1] is reported as “good stability”.
For `C=CC(=O)Nc1ncc(-c2ccccc2)s1` [Compound 9, N-(5-Phenylthiazol-2-yl)acrylamide], the IC50 in the series on HT29 is 24.3 µM.
As for `C=CC(=O)N(CC(=O)NC1COC1)c1nc(-c2ccccc2)cs1` [Compound 42, N-(2-(Oxetan-3-ylamino)-2-oxoethyl)-N-(4-phenylthiazol-2-yl)acrylamide], the IC50 with HCT116 turned out to be 23.2 µM.
The same measure, in the same setting: in the case of `C=CC(=O)Nc1nc(-c2ccc(OC)cc2)cs1` [Compound 21, N-(4-(4-Methoxyphenyl)thiazol-2-yl)acrylamide] it was 8 µM.
Consider `C=CC(=O)N(CC(=O)N1CCOCC1)c1nc(-c2ccccc2)cs1` [Compound 41, N-(2-Morpholino-2-oxoethyl)-N-(4-phenylthiazol-2-yl)acrylamide], for which the IC50 in the series on HT29 was 13.3 µM; in the series with HCT116, 14.6 µM.
On to `C=CC(=O)Nc1nc(-c2ccccc2)c(C)s1` [Compound 29, N-(4-Phenyl-5-methyl-thiazol-2-yl)acrylamide], for which the IC50 with HCT116 was 20.1 µM.
Still for that read-out and setting: in the case of `C=CC(=O)Nc1nc(-c2cccc(Cl)c2)cs1` [Compound 17, N-(4-(3-Chlorophenyl)thiazol-2-yl)acrylamide] it was 11.9 µM.
As for `C=CC(=O)Nc1nc(-c2ccc(C(F)(F)F)cc2)cs1` [Compound 20, N-(4-(4-Trifluoromethylphenyl)thiazol-2-yl)acrylamide], the IC50 in the series on HT29 and in the series with HCT116 was 4 µM throughout.
Regarding `C=CC(=O)N(Cc1cc(C)no1)c1nc(-c2ccc(C(F)(F)F)cc2)cs1` [Compound 47, N-((3-Methylisoxazol-5-yl)methyl)-N-(4-(4-trifluoromethylphenyl)thiazol-2-yl)acrylamide], the 50% inhibitory concentration (IC50) in the series on HT29 is 22.3 µM.
As for `C=CS(=O)(=O)Nc1ccc(Cl)c(S(=O)(=O)N(C)C)c1` [Compound 2, 2-Chloro-N,N-dimethyl-5-(vinylsulfonamido)benzenesulfonamide], the IC50 with HT29 is 16.8 µM; with HCT116, 11 µM.
For the compound `C=CC(=O)Nc1nc(-c2ccc3c(c2)OCO3)cs1` [Compound 22, N-(4-(3,4-Dioxylphenyl)thiazol-2-yl)acrylamide], in the series with HT29, the concentration for half-maximal inhibition (IC50) was 17.7 µM.
Same read-out and setting: for `C=CC(=O)Nc1nc(-c2ccccc2O)cs1` [Compound 24, N-(4-(2-Hydroxylphenyl)thiazol-2-yl)acrylamide] the value was 24.9 µM.
Consider `C=CC(=O)Nc1nc(-c2ccc(C)cc2)cs1` [Compound 19, N-(4-(4-Methylphenyl)thiazol-2-yl)acrylamide], for which, in the series with HCT116, the IC50 was 15.3 µM.
For the compound `C=CC(=O)Nc1nc(-c2ccccc2)c(C(=O)OCC)s1` [Compound 30, Ethyl 2-Acrylamido-4-phenylthiazole-5-carboxylate], the IC50 in the series with HT29 turned out to be 18 µM; with HCT116, 19.6 µM.
On to `C=CC(=O)Nc1nc(-c2ccccc2)cs1` [Compound 10, N-(4-Phenylthiazol-2-yl)acrylamide], for which the concentration for half-maximal inhibition (IC50) in the series with HCT116 came to 29 µM.
As to `C=CC(=O)N(Cc1cc(C)no1)c1cc(-c2ccccc2O)cs1` [Compound 53, N-(4-(2-Hydroxyphenyl)thiophen-2-yl)-N-((3-methylisoxazol-5-yl)methyl)acrylamide], the IC50 with HT29 was determined as 29.5 µM; with HCT116, 19.3 µM.
